Like-named read-outs stand apart in the source and are kept apart here.
Legend:
WI-38 cells [1] = settings: normalized ATP measurement
NRF2 = assay: qPCR analysis of NRF2-regulated genes; assay type: cell-based; settings: Homo sapiens
Method: (§1) For qPCR analysis, WI-38 cells were treated with small molecules (at 10 μM) (biological quadruplicates) for 24 hrs and processed for RNA isolation and reverse transcription (RT) with the Cells-to-Ct Kit (Life Technologies), following manufacturer's instructions. RT products were diluted with H2O and used for qPCR analysis on an ABI 7300 system (Life Technologies) (technical triplicates). Relative expression levels of target genes were normalized to the genes B2M, PPIA and GAPDH. To knock down the expression of FOXO3 or NRF2, WI-38 cells were transfected, using the RNAiMAX reagents (Life Technologies), with siRNA oligos (at 10 nM final concentration, 10 ml culture medium) for FOXO3 (Life Technologies) or NRF2 (Integrated DNA Technologies) on 10-cm petri dishes for 36 hrs, and then detached and aliquoted onto 96-well (for qPCR analysis) or 384-well plates (for H2O2-stress treatment). ˜24 hrs later, small molecules were introduced and incubated with cells for 24 hrs. Cells were then either processed with the Cells-to-Ct Kit to prepare RT products for qPCR analysis or subjected to H2O2 (700 μM) for 3 hrs and assayed for viability. The knockdown efficiency of FOXO3 or NRF2 was checked at 36 hrs post-transfection and at the end as well.
(§2) For qPCR analysis, WI-38 cells were treated with small molecules (at 10 μM) (biological quadruplicate) for 24 hrs and processed for RNA isolation and reverse transcription (RT) with the Cells-to-Ct Kit (Life Technologies), following manufacturer's instructions. RT products were diluted with H2O and used for qPCR analysis on a LightCycler 480 system (Roche) (technical triplicates). Relative expression levels of target genes were normalized to the genes B2M, PPIA and GAPDH. To knock down the expression of FOXO3 or NRF2, WI-38 cells were transfected with siRNA oligos (at 10 nM final concentration) for FOXO3 (Life Technologies) or NRF2 on 10-cm petri dish for 36 hrs, and then detached and aliquoted onto 96-well plates. ˜24 hrs later, small molecules were introduced and incubated with cells for 24 hrs. Cells were then processed with the Cells-to-Ct Kit to prepare RT products for qPCR analysis. The knockdown efficiency of FOXO3 or NRF2 was checked at 36 hrs post-transfection and at the end as well.
NRF2/SKN-1, the oxidative stress and xenobiotic phase 2 detoxification protein, can extend animal lifespan (Sykiotis and Bohmann, 2008; Tullet et al., 2008). Applicants analyzed these small molecules for their ability to increase the expression of NRF2-regulated genes, including HMOX1 (heme oxygenase (decycling) 1; anti-oxidant), NQO1 (NAD(P)H dehydrogenase, quinone 1; phase 2 detoxification enzyme), GCLC (glutamate-cysteine ligase, catalytic) and GSTM1 (glutathionine S transferase) (Hur and Gray, 2011; Suzuki et al., 2013).

WI-38 cells [2] = assay: MMS resistance assay; assay type: cell-based; settings: Homo sapiens, 12 h, normalized ATP measurement
Method: (§3) For many stress conditions tested previously, one significant correlation to longevity is the cellular resistance to H2O2 or CdCl2. Applicants then tested these small molecules, at five different final concentrations (0.25 μM to 20 μM), for cadmium and MMS resistance in WI-38 cells.
(§4) The setups on 384-well plates and incubation times were the same as for H2O2 until the time of incubation with the stressors, which was 12 hours for both cadmium and MMS assays. Applicants tested several conditions, including conditions used to assay fibroblasts from long-lived animals (Salmon et al., 2005). These conditions produced better results with the positive controls (KEAP1 and AKT1 siRNAs) in the MMS assay. Thus, for MMS, the cells were shifted from growth media—OptiMEM+10% FBS, to DMEM (Gibco)+2% BSA (no serum) just before adding small molecules, which occurred 24 hours before MMS addition.
(§5) Isolated small molecules were tested for MMS and cadmium resistance twice in two independent assays. Each small molecule was analyzed at five different concentrations (0.25 μM to 20 μM final concentration), with technical triplicates for each dose. Data were analyzed using a global variance t-test.

FOXO3 = assay: qPCR analysis of FOXO3-regulated genes; assay type: cell-based; settings: Homo sapiens
Method: as §1, §2
Many perturbations that increase lifespan and stress resistance in animals do so in a FOXO-dependent fashion (Kenyon, 2010c). Humans have several FOXO genes, but FOXO3, which promotes stress resistance in mammalian cell culture (Kops et al., 2002; Nemoto and Finkel, 2002; Tran et al., 2003), is the one that has been linked to exceptional longevity in humans (Anselmi et al., 2009; Flachsbart et al., 2009; Li et al., 2009; Pawlikowska et al., 2009; Soerensen et al., 2010; Willcox et al., 2008). FOXO1, in contrast, appears to be responsible for some symptoms of diabetes in mouse models (Cheng and White, 2011). For this reason, applicants have focused on analyzing potential ability of our small molecules to activate FOXO3. […] Another 4 molecules (Gr-7A, Gr-7C, O12 and O23) could induce robust expression (greater than 1.5-fold) of at least 2 FOXO3 target genes.

C. elegans = assay type: in vivo, Caenorhabditis elegans
mTOR = mTOR inhibition (RPS6 phosphorylation status), In-Cell Western; assay type: cell-based, human; settings: n=4
[3] = tested on: human dermal fibroblast (HDF) primary cells; assay: H2O2-resistance in primary human dermal fibroblasts; assay type: cell-based
WI-38 cells [4] = assay: CdCl2 (cadmium) resistance assay; assay type: cell-based; settings: Homo sapiens, 12 h, normalized ATP measurement
Method: as §3, §4, §5

## Oc1ccccc1-c1noc(-c2ccccc2O)n1 [O27]
WI-38 cells [1]
  No H2O2 stress treatment, at 10 uM (fold change): 0.75 fold change
NRF2; 24 h, Assay 12(o), at 10 uM, qPCR, read-out: Induction of NRF2-regulated genes: HMOX1 normalized fold-change
  fold induction at 10 µM: 1.71
NRF2; rounded fold change, WI-38 cells, 10 μM, 24 hrs (RP11 for Gr-1D, RP29 for Gr-4D), read-out: Summary of effects on NRF2-regulated genes: HMOX1
  fold induction at 10 µM: 1.71
NRF2; 10 μM, 24 hrs, WI-38 cells, qPCR, normalized to B2M, n = 4, read-out: HMOX1 expression, normalized fold change (NRF2-regulated gene)
  fold induction at 10 µM: 1.71
NRF2; WI-38 cells, 10 μM, 24 hrs, n=4, qPCR normalized by B2M, read-out: GCLC Normalized fold change
  fold induction at 10 µM: 1.25
NRF2; WI-38 cells, 10 μM, 24 hrs, n=4, qPCR normalized by B2M, read-out: GSTM1 Normalized fold change
  fold induction at 10 µM: 1.14
NRF2; WI-38 cells, 10 μM, 24 hrs, n=4, qPCR normalized by B2M, read-out: HMOX1 Normalized fold change
  fold induction at 10 µM: 1.71
NRF2; WI-38 cells, 10 μM, 24 hrs, n=4, qPCR normalized by B2M, read-out: NQO1 Normalized fold change
  fold induction at 10 µM: 1.33
WI-38 cells [2]; Exp. 1, WI-38 cells, read-out: Exp. 1, under MMS stress treatment, at 10 uM (fold change)
  fold induction at 10 µM: 0.74
WI-38 cells [2]; Exp. 2, WI-38 cells, read-out: Exp. 2, under MMS stress treatment, at 10 uM (fold change)
  fold induction at 10 µM: 2.45
FOXO3; 24 h, Assay 10(m), at 10 uM, qPCR, read-out: Induction of FOXO3-regulated genes: SESN1 normalized fold-change
  fold induction at 10 µM: 1.54
FOXO3; WI-38, 24 h, read-out: SESN1 expression
  fold induction at 10 µM: > 1.5
FOXO3; 10 μM, 24 hrs, WI-38 cells, qPCR, normalized to B2M, n = 4, read-out: SESN1 expression, normalized fold change (FOXO3-regulated gene)
  fold induction at 10 µM: 1.54
FOXO3; WI-38 cells, 10 μM, 24 hrs, n=4, qPCR normalized by B2M, read-out: DDB1 Normalized fold change
  fold induction at 10 µM: 1.05
FOXO3; WI-38 cells, 10 μM, 24 hrs, n=4, qPCR normalized by B2M, read-out: GADD45A Normalized fold change
  fold induction at 10 µM: 1.46
FOXO3; WI-38 cells, 10 μM, 24 hrs, n=4, qPCR normalized by B2M, read-out: SESN1 Normalized fold change
  fold induction at 10 µM: 1.54
FOXO3; fold change, qPCR, WI-38 cells, 10 μM, 24 hrs, read-out: Summary of effects on FOXO3-regulated genes: SESN1
  fold induction at 10 µM: 1.54
FOXO3; qPCR, WI-38 cells, 10 μM, n=4, 24 hrs, normalized by B2M, read-out: CAT Normalized fold change
  fold induction at 10 µM: 1.13
FOXO3; qPCR, WI-38 cells, 10 μM, n=4, 24 hrs, normalized by B2M, read-out: SOD2 Normalized fold change
  fold induction at 10 µM: 1.15
FOXO3; qPCR, WI-38 cells, 10 μM, n=4, 24 hrs, normalized by B2M, read-out: TXNIP Normalized fold change
  fold induction at 10 µM: 0.882
C. elegans; score
  N = H2O2-resistance in woms: 0
C. elegans; summary score
  L = H2O2-resistance in worms: 0
mTOR; Exp. 2, at 10 μM, In-Cell Western
  Exp. 2, normalized reduction in p-RPS6/RPS6 ratio: ~30% (−), at 10 μM
mTOR; Exp. 3, In-Cell Western
  Exp. 3, normalized reduction in p-RPS6/RPS6 ratio: ~86% (−), at 20 μM
[3]; Experiment 1, HDF cells, read-out: Experiment 1, HDF cells (under H2O2 stress treatment), at 10 uM (fold change)
  fold induction at 10 µM: 182
[3]; Experiment 2, HDF cells, read-out: Experiment 2, HDF cells (under H2O2 stress treatment), at 10 uM (fold change)
  fold induction at 10 µM: 46.1
WI-38 cells [4]; Exp. 1, WI-38 cells, read-out: Exp. 1, under Cd2Cl2 stress treatment, at 10 uM (fold change)
  fold induction at 10 µM: 1.68
WI-38 cells [4]; Exp. 2, WI-38 cells, read-out: Exp. 2, under Cd2Cl2 stress treatment, at 10 uM (fold change)
  fold induction at 10 µM: 1.89
